SMILES strings stand for the structures.

Protein sequences, listed by entry. Tags and fused reporters are not part of them. Lines headed by an entry give the natural chain unless they say otherwise; changes in a name come on top.
UniProt P08172, whole entry, looked up: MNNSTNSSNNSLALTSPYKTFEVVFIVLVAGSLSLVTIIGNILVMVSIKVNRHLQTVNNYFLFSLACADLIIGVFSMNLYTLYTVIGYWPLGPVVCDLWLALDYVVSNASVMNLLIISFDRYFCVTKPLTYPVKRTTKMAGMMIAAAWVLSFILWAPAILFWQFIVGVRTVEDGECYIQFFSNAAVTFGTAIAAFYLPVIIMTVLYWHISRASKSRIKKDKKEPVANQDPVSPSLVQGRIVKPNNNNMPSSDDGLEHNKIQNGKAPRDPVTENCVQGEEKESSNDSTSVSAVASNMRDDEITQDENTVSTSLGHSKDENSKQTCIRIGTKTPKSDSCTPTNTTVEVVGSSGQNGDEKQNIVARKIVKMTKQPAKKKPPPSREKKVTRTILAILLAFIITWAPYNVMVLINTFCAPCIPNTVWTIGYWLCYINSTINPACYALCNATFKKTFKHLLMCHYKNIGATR
UniProt P20309: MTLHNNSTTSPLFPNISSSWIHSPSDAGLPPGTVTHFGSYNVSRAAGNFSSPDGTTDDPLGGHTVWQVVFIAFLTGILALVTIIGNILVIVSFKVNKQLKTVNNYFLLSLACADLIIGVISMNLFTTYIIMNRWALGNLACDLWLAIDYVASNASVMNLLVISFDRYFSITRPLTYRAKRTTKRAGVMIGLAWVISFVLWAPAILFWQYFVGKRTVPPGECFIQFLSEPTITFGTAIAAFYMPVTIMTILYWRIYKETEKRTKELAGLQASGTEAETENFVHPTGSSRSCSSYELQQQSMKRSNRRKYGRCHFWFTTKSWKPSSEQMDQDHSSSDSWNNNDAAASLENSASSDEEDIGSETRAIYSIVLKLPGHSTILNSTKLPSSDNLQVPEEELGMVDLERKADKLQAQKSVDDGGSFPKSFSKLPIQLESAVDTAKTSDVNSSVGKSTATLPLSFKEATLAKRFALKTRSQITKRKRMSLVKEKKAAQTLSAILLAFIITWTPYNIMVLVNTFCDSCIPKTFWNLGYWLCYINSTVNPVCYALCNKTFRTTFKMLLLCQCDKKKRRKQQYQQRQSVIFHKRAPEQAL
UniProt P08173: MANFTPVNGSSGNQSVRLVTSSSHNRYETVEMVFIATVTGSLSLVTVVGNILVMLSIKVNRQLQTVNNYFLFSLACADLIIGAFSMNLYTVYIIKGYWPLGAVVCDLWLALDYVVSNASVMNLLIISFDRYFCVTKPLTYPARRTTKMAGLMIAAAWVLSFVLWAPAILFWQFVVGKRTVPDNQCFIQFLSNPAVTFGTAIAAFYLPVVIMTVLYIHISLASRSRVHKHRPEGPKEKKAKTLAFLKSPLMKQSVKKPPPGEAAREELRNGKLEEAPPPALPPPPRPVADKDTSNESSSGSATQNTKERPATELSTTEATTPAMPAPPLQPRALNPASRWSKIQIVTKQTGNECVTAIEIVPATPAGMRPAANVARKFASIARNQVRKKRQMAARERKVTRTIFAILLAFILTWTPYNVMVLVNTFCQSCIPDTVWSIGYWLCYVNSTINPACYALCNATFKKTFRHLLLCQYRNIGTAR
UniProt P11229: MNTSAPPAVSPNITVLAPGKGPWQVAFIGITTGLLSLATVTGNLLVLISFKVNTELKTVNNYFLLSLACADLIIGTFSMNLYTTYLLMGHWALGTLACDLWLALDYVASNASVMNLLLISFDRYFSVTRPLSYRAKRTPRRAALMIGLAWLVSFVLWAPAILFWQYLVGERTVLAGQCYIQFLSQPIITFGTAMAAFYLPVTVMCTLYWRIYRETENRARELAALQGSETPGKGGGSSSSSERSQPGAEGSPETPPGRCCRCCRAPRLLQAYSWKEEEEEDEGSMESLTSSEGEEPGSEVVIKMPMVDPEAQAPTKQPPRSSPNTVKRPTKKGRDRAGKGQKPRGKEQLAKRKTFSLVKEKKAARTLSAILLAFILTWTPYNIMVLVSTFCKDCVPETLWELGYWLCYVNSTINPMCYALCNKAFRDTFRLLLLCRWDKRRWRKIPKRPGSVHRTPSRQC
UniProt P08912: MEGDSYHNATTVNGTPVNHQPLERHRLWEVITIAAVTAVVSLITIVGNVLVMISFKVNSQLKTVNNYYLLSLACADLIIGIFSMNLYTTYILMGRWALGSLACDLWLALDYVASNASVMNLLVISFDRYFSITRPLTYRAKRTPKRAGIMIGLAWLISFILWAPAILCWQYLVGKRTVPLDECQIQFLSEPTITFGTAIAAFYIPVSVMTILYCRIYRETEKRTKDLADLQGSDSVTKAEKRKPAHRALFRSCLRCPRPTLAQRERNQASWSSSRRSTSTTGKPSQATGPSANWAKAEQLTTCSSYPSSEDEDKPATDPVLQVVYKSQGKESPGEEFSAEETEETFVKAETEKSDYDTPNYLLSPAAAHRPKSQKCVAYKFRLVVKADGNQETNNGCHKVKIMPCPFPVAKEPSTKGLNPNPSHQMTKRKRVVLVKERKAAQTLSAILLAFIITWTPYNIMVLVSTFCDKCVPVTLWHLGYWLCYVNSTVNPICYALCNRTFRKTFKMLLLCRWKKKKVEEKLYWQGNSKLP

What is called Kb is the equilibrium dissociation constant of an antagonist, usually derived from a functional assay.

Assay [1] addresses Muscarinic acetylcholine receptor M3 (Cavia porcellus) (UniProt Q8VH26). The assay is described as follows: Antagonist activity against muscarinic M3 receptor from guinea pig ileum. In kind it is functional, tissue-based. In outline:
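Longitudinal guinea pig ileum strips suspended in oxygenated Krebs buffer; carbachol concentration-response curves with or without at least three increasing antagonist concentrations (5-min preincubation). Contraction as % of maximal carbachol response without antagonist.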

The target in assay [2] is Muscarinic acetylcholine receptor M2 (Homo sapiens) (UniProt P08172). The assay is described as follows: Antagonist activity against muscarinic M2 receptor from guinea pig atria. The format is functional. Conditions: Cavia porcellus; target entry is the homologue from another species. Put shortly:
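Isolated guinea pig right atria in Krebs-Henseleit buffer; cumulative carbachol concentration-rate response curves before and after at least three increasing antagonist concentrations (5-min preincubation). Responses as % of maximal carbachol-induced rate inhibition without antagonist.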

Assay [3] concerns the target Muscarinic acetylcholine receptor (Homo sapiens) (UniProt P20309+P08173+P11229+P08172+P08912). Conditions: Cavia porcellus.
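Throughout, for ID50: in vivo guinea pig assay: antimuscarinic effect measured as reduced salivation after carbachol stimulation.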

As for `CCN1CCN(CC(=O)C(O)(c2ccccc2)C2CCC2)CC1` (stereo unspecified), the Kb came out at 124 nM in assay [1] and 223 nM in assay [2]. The compound further came in with an ID50 in assay [3] of 2.06 mg/kg.

Consider `C#CCN1CCN(CC(=O)C(O)(c2ccccc2)C2CCC2)CC1` (stereo unspecified), for which the Kb was 536 nM in assay [1] and > 30000 nM in assay [2]. The same compound showed an ID50 in assay [3] of 46.9 mg/kg.
